Measured values: patent EP4840874A1, “NOVEL PEPTIDE HAVING ACTIVITIES OF INHIBITING MUSCLE LOSS AND PROMOTING MUSCLE GROWTH, AND USES THEREOF” (dated 2026)

How the values were obtained:
C2C12 myoblasts [1] = assay: Early/mid/late differentiation protein expression (Western blot); conditions: 3 days differentiation
Description: To determine the effect of the peptide prepared in Preparation Example 1 on the differentiation of myoblasts into muscle cells/muscle fibers, the expression levels of protein markers related to early/mid/late differentiation in myoblasts were evaluated through Western blot analysis.
C2C12 cells (mouse myoblast line) were cultured in DMEM medium containing 1% P/S and 2% BCS. When cell confluency reached approximately 70 to 80%, cells were seeded into 6-well culture plates at a density of 5 x 10^5 cells/well by 2 ml. Subsequently, when cell confluency reached 100%, the medium was replaced with differentiation medium (1% P/S, 2% horse serum), and the peptide of SEQ ID NO: 1 was added at a concentration of 5 µM or 50 µM. Subsequently, the differentiation medium and the peptide of SEQ ID NO: 1 were replaced every two days. Three days after the first replacement, lysis buffer was added to lyse the cells, which was then centrifuged at 4°C and 12,000 rpm for 30 minutes to obtain the protein, which was quantified using a BCA kit. SDS-PAGE was performed on the protein, and the protein was electrotransferred onto a membrane. After blocking the protein-electrophoresed membrane with 5% skim milk, the anti-Myf5 primary antibody (Abcam, UK), the anti-MyoG primary antibody (Santa Cruz, USA), and the anti-α-actinin primary antibody (Santa Cruz, USA) were reacted with the anti-β-actin primary antibody (Santa Cruz, USA) as a loading control overnight at 4°C. The membrane was washed with PBS-T, and Peroxidase-conjugated AffiniPure Goat Anti-Rabbit IgG (H+L) secondary antibody (Jackson immunoResearch, USA) and Peroxidase-conjugated AffiniPure Goat Anti-Mouse IgG (H+L) secondary antibody (Jackson immunoResearch, USA) were reacted at room temperature for 1 hour. After washing the membrane again with PBS-T, visualization was performed using Gel Doc (Bio-Rad, Hercules, CA, USA) with Western detection reagent (Elpis Biotech, Daejeon, Korea).

C2C12 myoblasts [2] = assay: Differentiation-related protein expression in dexamethasone atrophy-induced myoblasts (Western blot); conditions: 5 or 50 µM pretreatment 30 minutes, then dexamethasone 24 hours
Description: Western blot analysis was used to evaluate whether the peptide prepared in Preparation Example 1 could restore the expression levels of differentiation-related proteins that were reduced in myoblasts with induced muscle atrophy.
C2C12 cells (mouse myoblast line) were cultured in DMEM medium containing 1% P/S and 2% BCS. When cell confluency reached approximately 70 to 80%, cells were seeded into 6-well culture plates at a density of 5 x 10^5 cells/well by 2 ml. Subsequently, when cell confluency reached 100%, the medium was replaced with differentiation medium (1% P/S, 2% horse serum) to induce differentiation. Subsequently, the differentiation medium was replaced every two days, and on the fourth day of differentiation induction, the cells were pretreated with the peptide of SEQ ID NO: 1 at a concentration of 5 µM or 50 µM for 30 minutes. Next, the cells were treated with soluble dexamethasone (Sigma, USA) and cultured for 24 hours to induce an atrophy environment. After culture, lysis buffer was added to lyse the cells, which was then centrifuged at 4°C and 12,000 rpm for 30 minutes to obtain the protein, which were then quantified using a BCA kit. SDS-PAGE was performed on the protein, and the protein was electrotransferred onto the membrane. […]

HepG2 hepatocytes = assay: Fat synthesis-related gene expression in oleic acid-treated hepatocytes (RT-PCR); conditions: 500 µM oleic acid, 5 or 50 µM peptide, 48 hours
Description: To determine the effect of the peptide prepared in Preparation Example 1 on the expression of genes related to lipid synthesis, the expression levels of lipid synthesis-related gene markers in hepatocytes were evaluated through RT-PCR analysis.
HepG2 cells (human hepatocyte line) were cultured in DMEM medium containing 1% P/S and 10% FBS. When cell confluency reached approximately 70 to 80%, cells were seeded into 12-well culture plates at a density of 1 x 10^5 cells/well by 1 ml. Subsequently, when cell confluency in the 12-well culture plates reached approximately 70 to 80%, the medium was replaced with serum-free DMEM medium. After 4 hours, the medium was replaced with serum-free DMEM (1% BSA) supplemented with 500 µM oleic acid (Sigma, USA), and the cells were treated with the peptide of SEQ ID NO: 1 at concentrations of 5 µM or 50 µM and cultured for 48 hours. After culture, the cells were harvested and RNA was extracted using Trizol (Thermo Fisher Scientific, USA). DNA complementary to the extracted RNA was obtained using TOPScript™ RT DryMIX (enzynomics, Korea), and then polymerase chain reaction (PCR) was performed on lipid synthesis-related genes using TOPsimple™ DryMIX-nTaq (enzynomics, Korea). The mRNA expression levels of the markers were then compared under each sample treatment condition by running the samples on a 1.5% agarose gel. […]

CC(C)[C@H](NC(=O)[C@@H](NC(=O)[C@@H](N)CC(=O)O)[C@@H](C)O)C(=O)N[C@@H](CCC(=O)O)C(=O)N[C@@H](CC(N)=O)C(=O)O
expression of Myf5 protein (C2C12 myoblasts [1]; 5 or 50 µM): increased in a concentration-dependent manner
expression of MyoG protein (C2C12 myoblasts [1]; 5 or 50 µM): increased in a concentration-dependent manner
expression of α-actinin protein (C2C12 myoblasts [1]; 5 or 50 µM): increased in a concentration-dependent manner
Myf5 protein expression level increase (C2C12 myoblasts [1]; peptide concentration 50 µM): more than 37 fold
protein expression level of MyoD reduced by dexamethasone (C2C12 myoblasts [2]): restored in a peptide concentration-dependent manner
protein expression level of α-actinin reduced by dexamethasone (C2C12 myoblasts [2]): restored in a peptide concentration-dependent manner
mRNA expression level of FAS increased by oleic acid (HepG2 hepatocytes): decreased in a peptide concentration-dependent manner
mRNA expression level of SREBP1 increased by oleic acid (HepG2 hepatocytes): decreased in a peptide concentration-dependent manner
